Results from PubChem BioAssay (NCI).
Only a part is listed here, and it is no random draw.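 Each cell line was grown in a 96-well plate and treated with one concentration of compound for 48 hours. Values below 10 were considered active.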 Some structures show a salt or complex split into parts, the way the source records it. Calls of active or inactive are those of the source.

Key:
Assay in all cases: NCI-60 one-dose screen, 48 h (100 = growth as untreated, 0 = no growth, -100 = all killed)
Details in all cases: 10 µM
SK-MEL-2 melanoma = test system: SK-MEL-2 melanoma
EKVX NSCLC = test system: EKVX NSCLC
SN12C renal = test system: SN12C renal
UO-31 renal = test system: UO-31 renal
TK-10 renal = test system: TK-10 renal
ACHN renal = test system: ACHN renal
CAKI-1 renal = test system: CAKI-1 renal
A498 renal = test system: A498 renal
HL-60(TB) leukemia = test system: HL-60(TB) leukemia
CCRF-CEM leukemia = test system: CCRF-CEM leukemia

Row | SMILES | growth (SK-MEL-2 melanoma) | growth (EKVX NSCLC) | growth (SN12C renal) | growth (UO-31 renal) | growth (TK-10 renal) | growth (ACHN renal) | growth (CAKI-1 renal) | growth (A498 renal) | growth (HL-60(TB) leukemia) | growth (CCRF-CEM leukemia)
1 | CC(C)N(CCCl)C(C)C | inactive: 120% | inactive: 121% | inactive: 99.7% | inactive: 98.2% | inactive: 118% | inactive: 106% | inactive: 97.4% | inactive: 82.6% | inactive: 116% | inactive: 102%
2 | Nc1cccc(Cl)c1.O=[N+]([O-])c1cc([N+](=O)[O-])c(O)c([N+](=O)[O-])c1 | inactive: 102% | inactive: 90.7% | inactive: 93.7% | inactive: 75.5% | inactive: 107% | inactive: 96.6% | inactive: 91% | inactive: 109% | inactive: 84.9% | inactive: 88.4%
3 | CN/C(N)=N/[N+](=O)[O-] | inactive: 103% | inactive: 112% | inactive: 97.6% | inactive: 87% | inactive: 97.5% | inactive: 99.3% | inactive: 105% | inactive: 88.9% | inactive: 97.5% | inactive: 102%
4 | O=[N+]([O-])c1cc([N+](=O)[O-])c(Nc2ccc(Cl)cc2)c([N+](=O)[O-])c1 | inactive: 94.7% | inactive: 36.5% | inactive: 26.3% | active: 8.3% | inactive: 40.4% | inactive: 31.8% | inactive: 20.6% | inactive: 66.1% | active: -19.4% | active: 5.99%
5 | CCCOP(=S)(Cl)OCCC | inactive: 100% |  | inactive: 94.9% | inactive: 94.9% | inactive: 101% | inactive: 101% | inactive: 93% | inactive: 80.9% | inactive: 101% | inactive: 93.6%
6 | Clc1ccccc1SCCBr | inactive: 106% | inactive: 107% |  | inactive: 88.9% | inactive: 104% | inactive: 114% | inactive: 95% | inactive: 97.1% |  | inactive: 100%
7 | CCN(C)CC.O=[N+]([O-])c1cc([N+](=O)[O-])c(O)c([N+](=O)[O-])c1 | inactive: 105% | inactive: 94.1% | inactive: 102% | inactive: 90% | inactive: 101% |  |  | inactive: 92.3% | inactive: 96.1% | inactive: 95.1%
8 | CC(C)N1CCN(CCOC(=O)C(O)(c2ccccc2)c2ccccc2)CC1 | inactive: 104% | inactive: 94.7% | inactive: 105% | inactive: 90.9% | inactive: 95.6% | inactive: 98.1% |  | inactive: 95.9% | inactive: 93.1% | inactive: 97.2%
9 | COc1ccccc1-c1ccccn1.O=[N+]([O-])c1cc([N+](=O)[O-])c(O)c([N+](=O)[O-])c1 | inactive: 111% |  | inactive: 99.4% | inactive: 84.6% | inactive: 95.7% | inactive: 95.7% | inactive: 84% | inactive: 106% | inactive: 105% | 
10 | O=[N+]([O-])N(CCOC(N(F)F)(N(F)F)N(F)F)CC([N+](=O)[O-])([N+](=O)[O-])[N+](=O)[O-] |  |  | inactive: 105% | inactive: 78.6% | inactive: 101% | inactive: 101% | inactive: 92.7% | inactive: 108% | inactive: 101% | inactive: 99.8%
11 | NN/C(N)=N/[N+](=O)[O-] |  | inactive: 108% | inactive: 105% | inactive: 86.8% | inactive: 106% | inactive: 107% | inactive: 103% | inactive: 126% | inactive: 94.2% | 
12 | CN(C)Nc1c([N+](=O)[O-])cc([N+](=O)[O-])cc1[N+](=O)[O-] | inactive: 85.4% |  | inactive: 96.1% | inactive: 91.3% | inactive: 127% | inactive: 107% | inactive: 113% | inactive: 112% | inactive: 96.7% | 
13 | CP(=S)(Cl)N(CCCl)CCCl (stereo not given) | inactive: 96.5% |  | inactive: 102% | inactive: 91.4% | inactive: 104% | inactive: 96.5% | inactive: 99.9% | inactive: 106% | inactive: 92.2% | 
14 | CN1CCN(CCOC(=O)C(O)(c2ccccc2)c2ccccc2)CC1 | inactive: 99.7% | inactive: 100% |  | inactive: 86.3% | inactive: 102% | inactive: 101% | inactive: 98.8% | inactive: 108% | inactive: 89% | inactive: 119%
15 | CP(=O)(OCCCCl)N(CCCl)CCCl (stereo not given) | inactive: 130% |  | inactive: 101% | inactive: 95.1% | inactive: 153% | inactive: 97.6% | inactive: 92% | inactive: 108% | inactive: 88.3% | 
16 | CCCCCCCOP(=O)(CC)OCCCCCCC | inactive: 99.4% |  | inactive: 96% | inactive: 77.8% | inactive: 104% | inactive: 105% | inactive: 92.6% | inactive: 90.9% | inactive: 106% | inactive: 101%
17 | Cc1c([N+](=O)[O-])cc([N+](=O)[O-])c(Br)c1[N+](=O)[O-] | inactive: 96.9% | inactive: 82.6% | inactive: 83.4% | active: -62.4% | active: -91.1% | active: -63.1% |  | inactive: 88.2% | active: -7.46% | active: 7.29%
18 | O=[N+]([O-])c1cc([N+](=O)[O-])c(O)c([N+](=O)[O-])c1.c1ccc([I+]c2ccccc2)cc1 |  | inactive: 43.8% | inactive: 85% | inactive: 59.3% | inactive: 42.5% | inactive: 52% | inactive: 43.5% | inactive: 77.8% | inactive: 35.2% | inactive: 40.7%
19 | O=[N+]([O-])c1cc([N+](=O)[O-])c(C(F)(F)F)c([N+](=O)[O-])c1O | inactive: 111% | inactive: 91.1% | inactive: 91.7% |  | inactive: 94.1% | inactive: 96.7% | inactive: 87.3% | inactive: 108% | inactive: 105% | inactive: 96.6%
20 | CN(CCCl)CCCCCCCl | inactive: 76.1% |  | inactive: 94.5% | inactive: 80.9% | inactive: 98.8% | inactive: 88.3% | inactive: 72.3% | inactive: 95.5% | inactive: 95.2% | 
21 | CCOC(=O)CSc1c(N)c(C)nn1C.O=[N+]([O-])c1cc([N+](=O)[O-])c(O)c([N+](=O)[O-])c1 | inactive: 92.7% |  | inactive: 102% | inactive: 87% | inactive: 106% | inactive: 103% | inactive: 112% | inactive: 112% | inactive: 97.1% | inactive: 101%
22 | CC[N+]([O-])(CC)Cc1ccccc1.O=[N+]([O-])c1cc([N+](=O)[O-])c(S(=O)(=O)O)c([N+](=O)[O-])c1 | inactive: 116% |  | inactive: 94.8% | inactive: 97.2% | inactive: 118% | inactive: 96.9% | inactive: 90.7% | inactive: 93.3% | inactive: 98.9% | inactive: 92.1%
23 | CCOP(=O)(CC)OCC | inactive: 106% |  | inactive: 99% | inactive: 90.7% | inactive: 98.6% | inactive: 106% | inactive: 91.6% | inactive: 39.5% | inactive: 99.9% | inactive: 104%
24 | CCOC(=O)Nc1c([N+](=O)[O-])cc([N+](=O)[O-])cc1[N+](=O)[O-] | inactive: 104% | inactive: 101% | inactive: 89.6% | inactive: 88.5% | inactive: 124% | inactive: 106% |  | inactive: 98.2% | inactive: 95.8% | inactive: 72.7%
25 | CCN(CC)CCS | inactive: 102% |  | inactive: 105% | inactive: 84.4% | inactive: 98.6% | inactive: 102% |  | inactive: 102% | inactive: 105% | 
26 | CP(=O)(OCCCl)N(CCCl)CCCl (stereo not given) | inactive: 80.8% |  | inactive: 107% | inactive: 91.1% | inactive: 98% | inactive: 95.8% | inactive: 99.8% | inactive: 107% | inactive: 98.7% | 
27 | CNc1ccccc1.O=[N+]([O-])c1cc([N+](=O)[O-])c(O)c([N+](=O)[O-])c1 | inactive: 108% |  | inactive: 90.1% | inactive: 93.7% | inactive: 111% | inactive: 102% |  | inactive: 74% | inactive: 96.3% | inactive: 98.3%
28 | N=C(N)N(N)[N+](=O)[O-] |  | inactive: 102% | inactive: 96.4% |  | inactive: 77.5% | inactive: 105% | inactive: 93.6% | inactive: 91.7% | inactive: 93% | inactive: 85.1%
29 | O=[N+]([O-])c1cccc([N+](=O)[O-])c1O |  | inactive: 112% | inactive: 109% | inactive: 91.2% | inactive: 82.3% | inactive: 107% | inactive: 108% | inactive: 108% | inactive: 96.1% | inactive: 122%
30 | O=[N+]([O-])N(CCN(CC(Br)([N+](=O)[O-])[N+](=O)[O-])[N+](=O)[O-])CC(Br)([N+](=O)[O-])[N+](=O)[O-] | inactive: 101% |  | inactive: 102% | inactive: 78% | inactive: 95.9% | inactive: 99.5% | inactive: 98.8% | inactive: 98% | inactive: 88.1% | inactive: 94%
